Measurements published in patent publication US20100055145A1, “STENT COATINGS FOR REDUCING LATE STENT THROMBOSIS” (Biosensors International Group, priority 2008, published 2010).

Assay: Partition coefficient (log P), reverse phase HPLC

SMILES: CCOCCO[C@@H]1CC[C@@H](C[C@@H](C)[C@@H]2CC(=O)[C@H](C)/C=C(\C)[C@@H](O)[C@@H](OC)C(=O)[C@H](C)C[C@H](C)/C=C/C=C/C=C(\C)[C@@H](OC)C[C@@H]3CC[C@@H](C)[C@@](O)(O3)C(=O)C(=O)N3CCCC[C@H]3C(=O)O2)C[C@H]1OC [BIOLIMUS A9, 42-O-(2-ethoxyethyl)rapamycin]
- lipophilicity relative to sirolimus or everolimus: approximately ten times more lipophilic than sirolimus or everolimus
